This note sets out measurements from PubChem BioAssay AID1441 (NMMLSC, 2008).

Protein sequences, listed by entry. Tags and fused reporters are not part of them.
UniProt O15492, whole entry, looked up: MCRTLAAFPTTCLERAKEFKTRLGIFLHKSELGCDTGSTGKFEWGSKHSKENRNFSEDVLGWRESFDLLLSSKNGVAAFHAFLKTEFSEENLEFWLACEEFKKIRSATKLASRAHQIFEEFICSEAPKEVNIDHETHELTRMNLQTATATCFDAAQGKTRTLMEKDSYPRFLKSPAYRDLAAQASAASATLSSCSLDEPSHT
UniProt P09471, whole entry, looked up: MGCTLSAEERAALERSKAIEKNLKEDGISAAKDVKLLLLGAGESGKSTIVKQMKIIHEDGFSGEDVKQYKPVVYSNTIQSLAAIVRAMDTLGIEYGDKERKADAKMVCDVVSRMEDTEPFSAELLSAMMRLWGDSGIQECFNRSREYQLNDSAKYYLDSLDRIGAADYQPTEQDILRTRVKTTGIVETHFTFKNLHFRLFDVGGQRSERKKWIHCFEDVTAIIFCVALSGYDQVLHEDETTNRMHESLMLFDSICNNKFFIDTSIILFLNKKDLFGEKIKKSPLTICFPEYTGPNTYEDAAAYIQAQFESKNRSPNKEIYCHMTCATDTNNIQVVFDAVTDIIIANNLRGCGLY

The entries are a selection whose mix differs from that of the whole data set. Calls of active or inactive are those of the source. The rule behind the calls is not given here.

The assay has as its target Regulator of G-protein signaling 16 (Homo sapiens) + Guanine nucleotide-binding protein G(o) subunit alpha (Homo sapiens) (UniProt O15492+P09471). Put plainly: modulators of RGS16 binding to Galphao, primary screen, biochemical, human proteins, multiplexed bead flow cytometry (AID 1441).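 Note: Galphao activated by GDP with aluminum fluoride before binding.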 Particulars: bead-based flow cytometry RGS16-Galphao binding, fluorescence; at 10 µM; actives lie on both sides. (In general: A flow cytometer gives signals particle by particle.)
Consider `CP(=O)(Nc1cccc(Br)c1)Oc1ccccc1` (stereo not drawn), for which the binding response (% of control) was inactive: 98.7%.

In the case of `Cc1ccc(C)c(NP(C)(=O)Oc2ccccc2)c1` (stereo not drawn), the binding response (% of control) was inactive: 14.1%.

As for `CCCOP(=S)(Nc1nc(N)cc(=O)[nH]1)OCCC`, the binding response (% of control) was inactive: 99.2%.

Take `Cc1cc(C)cc(OP(C)(=O)Nc2ccc(C)cc2C)c1` (stereo not drawn): the binding response (% of control) was inactive: 103%.

Regarding `Cc1cccc(OCC(=O)OC2CN3CCC2CC3)c1` (stereo not drawn), the binding response (% of control) was inactive: 114%.

Consider `O=[As](O)(c1cccc(O)c1)c1cccc(O)c1`, for which the binding response (% of control) is inactive: 104%.

For `CCOC(=O)c1ccc(NP(C)(=O)Oc2cc(C)cc(C)c2)cc1` (stereo not drawn), the binding response (% of control) is inactive: 112%.

For the compound `O=C(OC1CN2CCC1CC2)c1ccc(Cl)cc1` (stereo not drawn), the binding response (% of control) is inactive: 97.8%.

For `COc1ccccc1OP(C)(=O)Nc1cccc(Br)c1` (stereo not drawn), the binding response (% of control) was inactive: 99.9%.

Consider `COc1cc(C(=O)NCC2(N3CCOCC3)CCCCC2)cc(Cl)c1OC(C)C`, for which the binding response (% of control) is inactive: 111%.

In the case of `CN(C(=O)Cc1ccccc1)[C@@H]1CC[C@]2(CCCO2)C[C@H]1N1CCCC1`, the binding response (% of control) was inactive: 82.4%.

As for `CC1=NCCc2c1[nH]c1ccccc21.O=[N+]([O-])c1cc([N+](=O)[O-])c(O)c([N+](=O)[O-])c1`, the binding response (% of control) is inactive: 111%.

As to `O=[N+]([O-])c1ccc2c(c1)nnn2O`, the binding response (% of control) is inactive: 251%.

For the compound `NC(=O)Nc1ccc([As](=O)(O)O)cc1`, the binding response (% of control) was inactive: 93.8%.

Turning to `O=C(O)COc1ccc([As](=O)(O)O)cc1[N+](=O)[O-]`, the binding response (% of control) is inactive: 98.5%.

`O=P(Nc1nccs1)(Oc1ccccc1)Oc1ccccc1`: the binding response (% of control) is inactive: 90%.

As for `O=P(Nc1nccs1)(c1ccccc1)c1nc2ccccc2s1` (stereo not drawn), the binding response (% of control) is inactive: 98.6%.

On to `O=C(O)c1cccc(Nc2c([N+](=O)[O-])cc([N+](=O)[O-])cc2[N+](=O)[O-])c1`, for which the binding response (% of control) is inactive: 99.8%.

On to `CS(=O)(=O)c1cc([N+](=O)[O-])c2no[n+]([O-])c2c1`, for which the binding response (% of control) was inactive: 29.8%.

For `CCCOc1ccc(NP(C)(=O)Oc2ccc(Cl)cc2)cc1` (stereo not drawn), the binding response (% of control) is inactive: 99.3%.

As for `CP(=O)(Nc1ccc(SC(F)(F)F)cc1)Oc1ccccc1` (stereo not drawn), the binding response (% of control) is inactive: 94.6%.

For the compound `Nc1cccc([As](=O)(O)c2ccccc2)c1`, the binding response (% of control) is inactive: 101%.

For `O=[As](O)(c1cccs1)c1cccs1`, the binding response (% of control) was inactive: 96.5%.

As for `Cc1ccc(OCC(=O)OC2CN3CCC2CC3)cc1` (stereo not drawn), the binding response (% of control) was inactive: 88.2%.

For the compound `O=P1(Nc2ccc(Br)cn2)COc2ccccc2OC1`, the binding response (% of control) is inactive: 106%.

Consider `CN1CCCCC1COC(=O)C1(O)c2ccccc2CCc2ccccc21` (stereo not drawn), for which the binding response (% of control) is inactive: 103%.

Take `COc1ccccc1OP(C)(=O)Nc1c(C)cccc1C` (stereo not drawn): the binding response (% of control) was inactive: 96.2%.

For `CCOC(=O)C(CC)C1=NC(C)(C)Cc2ccccc21.O=[N+]([O-])c1cc([N+](=O)[O-])c(O)c([N+](=O)[O-])c1` (stereo not drawn), the binding response (% of control) was inactive: 92.9%.

Take `CN(C)C1(CNC(=O)c2ccc(S(C)(=O)=O)cc2)CCCCC1`: the binding response (% of control) is inactive: 102%.

Take `O=[N+]([O-])c1cc([N+](=O)[O-])c(Nc2nnnn2CCO)c([N+](=O)[O-])c1`: the binding response (% of control) is inactive: 97.8%.

`CC1CCC(C(C)C)C(OP(=O)(Nc2ccccn2)c2ccccc2)C1` (stereo not drawn): the binding response (% of control) was inactive: 107%.

On to `Cc1nn(-c2ccccc2)c2c1P(=O)(N1CCOCC1)N(C)C(c1ccccc1)=N2` (stereo not drawn), for which the binding response (% of control) is inactive: 103%.

For `COc1cc(C2NCCC3(OCCO3)C2(C)C)cc(OC)c1OC.O=[N+]([O-])c1cc([N+](=O)[O-])c(O)c([N+](=O)[O-])c1` (stereo not drawn), the binding response (% of control) is inactive: 101%.

With `CN(C(=O)Cc1ccc(Cl)c(Cl)c1)[C@@H]1CCCC[C@H]1N1CCCC1`, the binding response (% of control) is inactive: 104%.

With `CC(C)/C=N\N=C(\N)N[N+](=O)[O-]`, the binding response (% of control) is inactive: 94.8%.

On to `Cc1nc2ccc3ccccc3c2s1.O=[N+]([O-])c1cc([N+](=O)[O-])c(O)c([N+](=O)[O-])c1`, for which the binding response (% of control) was inactive: 100%.

Regarding `O=[As](O)(c1ccccc1Br)c1ccccc1Br`, the binding response (% of control) was inactive: 102%.

With `CC(C)(C)C(=O)NC(Sc1ncccn1)C(Cl)(Cl)Cl` (stereo not drawn), the binding response (% of control) is inactive: 98.4%.

`Clc1n[nH]nc1-c1nn[nH][15n]1`: the binding response (% of control) was inactive: 99.8%.

Regarding `O=[N+]([O-])c1cc([N+](=O)[O-])c(-n2nnc3ccccc32)c([N+](=O)[O-])c1`, the binding response (% of control) was inactive: 72.6%.

With `CCOP(=O)(Nc1ccc(C)cn1)OCC`, the binding response (% of control) is inactive: 95.8%.

For the compound `CCC(C)N(CC(C)C)C(=S)SC(NC(C)=O)C(Cl)(Cl)Cl` (stereo not drawn), the binding response (% of control) was inactive: 105%.

Consider `CP(=O)(Nc1ccccn1)Oc1ccc(Cl)cc1` (stereo not drawn), for which the binding response (% of control) is inactive: 101%.

For the compound `CCOP(C)(=S)SCC(=O)NC(C)C(=O)O` (stereo not drawn), the binding response (% of control) was inactive: 94.2%.

For the compound `CCOC(=O)c1ccc(NC(=O)C(C)(CCl)SC)cc1` (stereo not drawn), the binding response (% of control) is inactive: 103%.

In the case of `CCOC(=O)c1ccc(NP(C)(=O)Oc2ccc(OC)cc2)cc1` (stereo not drawn), the binding response (% of control) was inactive: 114%.

For `Cc1cc(C)cc(OP(C)(=O)Nc2ccc(SC(F)(F)F)cc2)c1` (stereo not drawn), the binding response (% of control) was inactive: 110%.

For the compound `CP(=O)(NC(=O)Nc1ccccc1)Oc1ccccc1` (stereo not drawn), the binding response (% of control) was inactive: 97.4%.

As for `O=C(COc1ccccc1)OC1CN2CCC1CC2` (stereo not drawn), the binding response (% of control) is inactive: 90.8%.

Regarding `CCc1ccc(OP(C)(=O)N2CCN(c3ccc([N+](=O)[O-])cc3)CC2)cc1` (stereo not drawn), the binding response (% of control) is inactive: 100%.

As for `CP(=O)(Oc1ccccc1)OC(c1ccccc1)C(F)(F)F` (stereo not drawn), the binding response (% of control) is inactive: 105%.

Take `COP1(=S)c2c(C)nn(CCC#N)c2N=C(c2ccc(F)cc2)N1C` (stereo not drawn): the binding response (% of control) was inactive: 100%.

With `CP(=O)(Nc1ccc(SC(F)(F)F)cc1)Oc1ccc(Cl)cc1` (stereo not drawn), the binding response (% of control) was inactive: 102%.

For the compound `Cc1cccc(C)c1OP(C)(=O)Nc1ccc(SC(F)(F)F)cc1` (stereo not drawn), the binding response (% of control) was inactive: 138%.

Turning to `COc1ccccc1OP(C)(=O)Nc1ccccc1` (stereo not drawn), the binding response (% of control) is inactive: 103%.

Consider `Cc1cc(SC(NC=O)C(Cl)(Cl)Cl)ncn1` (stereo not drawn), for which the binding response (% of control) is inactive: 101%.

As for `O=[N+]([O-])c1ccc(Nc2ccc(Oc3ccc([N+](=O)[O-])cc3[N+](=O)[O-])cc2)c([N+](=O)[O-])c1`, the binding response (% of control) is inactive: 97.7%.

Turning to `CP(=O)(Nc1ccccc1Br)Oc1ccccc1` (stereo not drawn), the binding response (% of control) was inactive: 157%.

`CP(=S)(Nn1cnnc1)Oc1ccccc1` (stereo not drawn): the binding response (% of control) was inactive: 186%.

In the case of `CCOC(=O)Nc1cccc([As](=O)(O)O)c1`, the binding response (% of control) is inactive: 107%.

As for `Cc1cc(SC(NC(=O)c2ccccc2)C(Cl)(Cl)Cl)nc(C(C)C)n1` (stereo not drawn), the binding response (% of control) is inactive: 98%.

As for `CCOC(=O)Nc1ccc([As](=O)(O)O)c(O)c1`, the binding response (% of control) is inactive: 97.9%.

Take `COc1ccc(OP(C)(=O)Nc2cccc(F)c2)cc1` (stereo not drawn): the binding response (% of control) was inactive: 87.2%.

In the case of `O=[N+]([O-])c1cc([N+](=O)[O-])c(-c2ccn[nH]2)s1`, the binding response (% of control) is inactive: 105%.

With `CC(C)NC(=O)NP(=O)(Oc1ccccc1)Oc1ccccc1`, the binding response (% of control) is inactive: 93.1%.

As for `COc1ccccc1OP(C)(=O)Nc1cc(Cl)ccc1C` (stereo not drawn), the binding response (% of control) was inactive: 107%.

Take `CCN(CC)C(=S)SC(NC=O)C(Cl)(Cl)Cl` (stereo not drawn): the binding response (% of control) was inactive: 106%.

Turning to `Cc1cc(C)cc(OP(C)(N)=O)c1` (stereo not drawn), the binding response (% of control) was inactive: 100%.

For `CCOC(=O)c1ccc(NP(C)(=O)Oc2ccccc2)cc1` (stereo not drawn), the binding response (% of control) was inactive: 101%.

For `CC(C)c1ccc(OP(=O)(Nc2ccccn2)Oc2ccccc2F)cc1` (stereo not drawn), the binding response (% of control) was inactive: 76.2%.

Regarding `Cc1ccc(NP(C)(=O)Oc2ccccc2)c(C)c1` (stereo not drawn), the binding response (% of control) is inactive: 103%.

As for `COc1ccccc1OP(C)(=O)Nc1ccc(C)cc1` (stereo not drawn), the binding response (% of control) is inactive: 64.3%.

Turning to `Cc1cccc(C)c1OP(C)(N)=O` (stereo not drawn), the binding response (% of control) was inactive: 105%.

`Cc1ccc(OP(=O)(Nc2ccc([N+](=O)[O-])cn2)Oc2ccc(C)cc2)cc1`: the binding response (% of control) is inactive: 99.7%.

As for `CC(C)(C)c1ccc(OP(C)(=O)Nc2ccc(SC(F)(F)F)cc2)cc1` (stereo not drawn), the binding response (% of control) is inactive: 93.7%.

For `O=[N+]([O-])c1ccc2c(c1)C=Nc1ccccc1O2`, the binding response (% of control) is inactive: 112%.

With `O=[As](O)(c1ccc(O)cc1)c1ccccc1O`, the binding response (% of control) is inactive: 98.3%.

Consider `C[As](=O)(O)c1cccc(C(=O)O)c1`, for which the binding response (% of control) was inactive: 80.6%.

Consider `COc1ccc(N/C(=N/P(=O)(N2CCOCC2)N2CCOCC2)N2CCOCC2)cc1`, for which the binding response (% of control) is inactive: 115%.

As for `COc1ccc2nc(NP(=O)(c3ccccc3)c3ccccc3)sc2c1`, the binding response (% of control) is inactive: 113%.

For `Cc1c2c(nc3ccccc13)SC(C(Cl)Cl)C2` (stereo not drawn), the binding response (% of control) was inactive: 94.6%.

As for `CCN(CC)CCCOC(=O)C(O)(c1ccccc1)c1ccccc1`, the binding response (% of control) was inactive: 99.6%.

As for `Cc1cc(=O)[nH]c(N[N+](=O)[O-])n1`, the binding response (% of control) is inactive: 113%.
